{"sequences": {"note": "Sequences of proteins named here, by UniProt entry; tags and fusion partners are left off. Residues count along the entry.", "UniProt Q15599, 150-230 limits assumed": "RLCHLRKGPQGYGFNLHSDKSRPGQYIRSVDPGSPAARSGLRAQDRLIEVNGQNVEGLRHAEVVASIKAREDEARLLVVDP"}, "source": "paper PMC9482650", "about": "“Quantitative fragmentomics allow affinity mapping of interactomes” (Nature Communications, 2022)", "target": "NHERF2_2 PDZ (Homo sapiens, UniProt Q15599)", "assay": "Holdup assay", "format": "binding", "settings": "composite holdup affinity; 0.00=below quantification threshold; read-out: COMP pKd (converted)", "data": [{"smiles": "CC(C)C[C@H](NC(=O)[C@H](CCCNC(=N)N)NC(=O)[C@@H](NC(=O)[C@H](CC(=O)O)NC(=O)[C@H](CCC(N)=O)NC(=O)[C@@H](NC(=O)[C@H](CCC(=O)O)NC(=O)[C@H](CCC(=O)O)NC(=O)[C@H](CCC(=O)O)NC(=O)[C@@H](N)[C@@H](C)O)C(C)C)[C@@H](C)O)C(=O)O", "note": "[CFTR]", "values": [{"measurement": "Kd", "value": 4.1, "unit": "µM"}]}]}
